Assay results taken from paper PMC4947123.

B1: bioGFP-tagged OPTN wild-type [modified: biotin on the bio tag (co-transfected biotin ligase BirA); biotin on the bio tag (co-transfected biotin ligase BirA)] [not stated] / Casein kinase II subunit alpha (Csnk2a2) [mouse … (parent)
chain 1: MSHQPLSCLTEKEDSPSESTGNGPPHLAHPNLDTFTPEELLQQMKELLTENHQLKEAMKLNNQAMKGRFEELSAWTEKQKEERQFFEIQSKEAKERLMALSHENEKLKEELGKLKGKSERSSEDPTDDSRLPRAEAEQEKDQLRTQVVRLQAEKADLLGIVSELQLKLNSSGSSEDSFVEIRMAEGEAEGSVKEIKHSPGPTRTVSTGTALSKYRSRSADGAKNYFEHEELTVSQLLLCLREGNQKVERLEVALKEAKERVSDFEKKTSNRSEIETQTEGSTEKENDEEKGPETVGSEVEALNLQVTSLFKELQEAHTKLSEAELMKKRLQEKCQALERKNSAIPSELNEKQELVYTNKKLELQVESMLSEIKMEQAKTEDEKSKLTVLQMTHNKLLQEHNNALKTIEELTRKESEKVDRAVLKELSEKLELAEKALASKQLQMDEMKQTIAKQEEDLETMTILRAQMEVYCSDFHAERAAREKIHEEKEQLALQLAVLLKENDAFEDGGRQSLMEMQSRHGARTSDSDQQAYLVQRGAEDRDWRQQRNIPIHSCPKCGEVLPDIDTLQIHVMDCII
chain 2: MPGPAAGSRARVYAEVNSLRSREYWDYEAHVPSWGNQDDYQLVRKLGRGKYSEVFEAINITNNERVVVKILKPVKKKKIKREVKILENLRGGTNIIKLIDTVKDPVSKTPALVFEYINNTDFKQLYQILTDFDIRFYMYELLKALDYCHSKGIMHRDVKPHNVMIDHQQKKLRLIDWGLAEFYHPAQEYNVRVASRYFKGPELLVDYQMYDYSLDMWSLGCMLASMIFRKEPFFHGQDNYDQLVRIAKVLGTDELYGYLKKYHIDLDPHFNDILGQHSRKRWENFIHSENRHLVSPEALDLLDKLLRYDHQQRLTAKEAMEHPYFYPVVKEQSQPCAENTVLSSGLTAAR
B2: bioGFP-tagged OPTN wild-type [modified: biotin on the bio tag (co-transfected biotin ligase BirA); biotin on the bio tag (co-transfected biotin ligase BirA)] [not stated] / Tax1-binding protein 1 (Tax1bp1) [mouse (endogenous … (parent)
chain 1: B1 chain 1
chain 2: MTSFQEVQLQTSNFAHVIFQNVAKSYLPNAHLECHYTLTPYIHPHSKDWVGIFKVGWSTARDYYTFLWSPMPEHYVEGSTVNCVLAFQGYYLPNDDGEFYQFCYVTHKGEIRGASTPFQFRAASPVEELLTMEDEGNSDMLVVTTKAGLLELKIEKTLKEKEELLKLIAVLEKETAQLREQVGRMERELSQEKGRCEQLQAEQKGLLEVSQSLRVENEEFMKRYSDATAKVQQLEEDIVSVTHKAIEKETDLDSLKDKLRKAQHEREQLECQLQTEKDEKELYKVHLKNTEIENTKLVSEIQTLKNLDGNKESMITHFKEEISKLQSCLADKENLYRALLLTTSNKEDTLFLKEQLRKAEEQVQATRQELIFLTKELSDAVNVRDKTMADLHTARLENERVKKQLADTLAELQLHAVKKDQEKTDTLEHELRREVEDLKLRLQMAADHYREKFKECQRLQKQINKLSDQAASTNSVFTKKMGSQQKVNDASINTDPAASTSASAVDVKPAASCAETGFDMSTKDHVCEMTKEIAEKIEKYNKCKQLLQDEKTKCNKYAEELAKMELKWKEQVKIAENVKLELAEVEDNYKVQLAEKEKEINGLASYLENLSREKELTKSLEDQKGRKLEGQSPQQVSRCLNTCSEQNGLLPPLSSAQPVLQYGNPYSAQETRDGADGAFYPDEIQRPPVRVPSWEDNVVCSQPARNLSRPDGLEDPEDSREDENVPIPPDPANQHLRSHGAGFCFDSSFDVHKKCPLCELMFPPNYDQTKFEEHVESHWKVCPMCSEQFPPDYDQQGFERHVQTHFDQNVLNFD
B3: bioGFP-tagged OPTN wild-type [modified: biotin on the bio tag (co-transfected biotin ligase BirA); biotin on the bio tag (co-transfected biotin ligase BirA)] [not stated] / Dolichyl-diphospho-oligosaccharideprotein … (parent)
chain 1: B1 chain 1
chain 2: SSEAPPLVNEDVKRTVDLSSHLAKVTAEVVLVHPGGGSTSRASSFVLALEPELESRLAHLGVQIKGEDEEDNNLEVRETKIKGKSGRFFTVKLPVALDPGSKISVVVETVYTHVLHPYPTQITQSEKQFVVFEGNHYFYSPYPTKTQTMRVKLASRNVESYTKLGNPSRSEDVLDYGPFKDIPAYSQDTFKVHYENNSPFLTITSMTRVIEVSHWGNIAVEENVDLKHTGAVLKGPFSRYDYQRQPDSGISSIRSFKTILPAAAQDVYYRDEIGNVSTSHLLILDDSVEMEIRPRFPLFGGWKTHYIVGYNLPSYEYLYNLGDQYALKMRFVDHVFDEQVIDSLTVKIILPEGAKNIQVDSPYDISRAPDELHYTYLDTFGRPVIVAYKKNLVEQHIQDIVVHYTFNKVLMLQEPLLVVAAFYILFFTVIIYVRLDFSITKDPAAEARMKVACITEQVLTLVNKRLGLYRHFDETVNRYKQSRDISTLNSGKKSLETEHKAVTSEIAVLQSRLKTEGSDLCDRVSEMQKLDAQVKELVLKSAVEAERLVAGKLKKDTYLENEKLSSGKRQELVTKIDHILDAL
B4: bioGFP-tagged OPTN wild-type [modified: biotin on the bio tag (co-transfected biotin ligase BirA); biotin on the bio tag (co-transfected biotin ligase BirA)] [not stated] / IgE-binding protein (Iap) [mouse (endogenous in (parent)
chain 1: B1 chain 1
chain 2: MALQVMFGLEFFLVLEALLFLFTCYQVVKAGRILDEIQDKLSEVKRGERVGTKRKYGTQNKYTGLSKGLEPEEKLRLGRNTWREIRRKRGKREKKKDQLAEVSRKRSLCSSLDGLGKPALSSSEAGEESSSEETDWEEEAAHYQPANWSRKKPKAAGEGQFADWPQGSRLQGPPYAESPPCVVRQQCAERCAERQCAERQCADSFIPREEQRKIQQAFPVFEGAEGGRVHAPVEYLQIKEIAESVRKYGTNANFTLVQLDRLAGMALTPADWQTVVKAALPSMGKYMEWRALWHEAAQAQARANAAALTPEQRDWTFDLLTGQGAYSADQTNYHWGAYAQISSTAIRPGRRSRAGETTGQLTKIIQGPQESFSDFVARMTEAAERIFGESEQAAPLIEQLIYEQATKECRAVHSPKKEQRLTRLAQGLSRAWGKPRLLKTDNGPAYTSQKFQQFCRQMDVTHLTGLPYNPQGQGIVERAHRTLKAYLIKQKRGTFEETVPRAPRVSVSLALFTLNFLNIDAHGHTAAERHVQSQIGPMRWLNGKMSLIINGMARILS

Variants of: B1
Test: biotin-streptavidin pull-down and mass spectrometry
Conditions: with Casein kinase II subunit alpha (Csnk2a2) [mouse (endogenous in N2A)]; N2A cells, triplicate experiments; Welch's t test, S0: 1.5, FDR: 0.01; read off a plot

Row | Variant | screen value
1 | chain 1 E478G | 3.4

Variants of: B2
Test: as above
Conditions: with Tax1-binding protein 1 (Tax1bp1) [mouse (endogenous in N2A)]; N2A cells, triplicate experiments; Welch's t test, S0: 1.5, FDR: 0.01; read off a plot

Row | Variant | screen value
2 | chain 1 E478G | 4.3

Variants of: B3
Test: as above
Conditions: with Dolichyl-diphospho-oligosaccharideprotein glycosyltransferase subunit 1 (Rpn1) [mouse (endogenous in N2A)]; N2A cells, triplicate experiments; Welch's t test, S0: 1.5, FDR: 0.01; read off a plot

Row | Variant | screen value
3 | chain 1 E478G | 3.5

Variants of: B4
Test: as above
Conditions: with IgE-binding protein (Iap) [mouse (endogenous in N2A)]; N2A cells, triplicate experiments; Welch's t test, S0: 1.5, FDR: 0.01; read off a plot

Row | Variant | screen value
4 | chain 1 E478G | 11
